We go through 37 compounds from publication PMC5991913, “Identification of specific metabolic pathways as druggable targets regulating the sensitivity to cyanide poisoning” (2018).

Where two headings read alike, the source gives them in different places.

The test system of data set [1] is 7 dpf zebrafish larvae. The data set can be described thus: Focused screen: protection of 7 dpf larvae against 20 µM KCN, 24h survival. Conditions: for Survival after 24h / protection of 7 dpf larvae from a lethal KCN dose (result in words): 7 dpf larvae; for Survival after 24h: 20 µM KCN for 24h, separate experiments by column; for EC50: read-out: Protective dose (24h survival) – EC50; for EC50 / Protective dose (24h survival) – EC50: 7 dpf fish + 20 µM KCN; for Protective dose (24h survival) – EC50: dash entries; for protection of 7 dpf larvae from a lethal KCN dose (result in words): focused screen, at respective effective dose.

Data set [2] relates to 7 dpf zebrafish larvae. As to conditions: 7 dpf fish.
For data set [3], the system named is 1 dpf zebrafish embryos. As to conditions: 1 dpf fish.
The subject of data set [4] is 1 dpf zebrafish embryos. Conditions: for Dose reversing resistance to KCN – IC50: 1 dpf fish + 500 µM KCN, dash entries.

Usually EC50 stands for the concentration at which the effect is half-maximal. A word on the IC50: it is the concentration at which inhibition is half-maximal.

For the compound “(±)-3-Methyl-2-oxovaleric acid sodium salt”, the “Survival after 24h” value in the data set with 7 dpf zebrafish larvae [1] (dose 50 µM) is recorded as 0; with 7 dpf zebrafish larvae [1] (dose 100 µM) it was 0; in the data set with 7 dpf zebrafish larvae [1] (dose 2 mM), 100; in the data set on 7 dpf zebrafish larvae [1] (dose 5 mM), 100; in the data set with 7 dpf zebrafish larvae [1] (dose 10 mM), 100. Also, the EC50 in the data set with 7 dpf zebrafish larvae [1] stood at 571 µM. In the data set with 7 dpf zebrafish larvae [2] (dash entries), the “Toxic dose (without KCN)” value is given as “-”.
Consider `COC(=O)CCC(=O)C(=O)OC`, for which the “Toxic dose (without KCN)” value was determined as 10 mM with 1 dpf zebrafish embryos [3] (mortality after 24h exposure) and 5 mM in the data set on 7 dpf zebrafish larvae [2] (mortality after 24h exposure). Moreover, the “Protective dose (24h survival) – EC50” value in the data set with 7 dpf zebrafish larvae [1] is “-”. Also, in the data set on 1 dpf zebrafish embryos [4], the “Dose reversing resistance to KCN – IC50” value was “-”.
As to Leelamine hydrochloride, in the data set on 7 dpf zebrafish larvae [1], the “Protective dose (24h survival) – EC50” value was “-”. Besides, the “Toxic dose (without KCN)” value with 7 dpf zebrafish larvae [2] (mortality after 24h exposure) came out at 0.02 mM.
On to `COC(=O)CCC(=O)OC`, for which the “Toxic dose (without KCN)” value with 1 dpf zebrafish embryos [3] (mortality after 24h exposure) was determined as 5 mM; in the data set with 7 dpf zebrafish larvae [2] (mortality after 24h exposure), 0.31 mM. In the data set with 7 dpf zebrafish larvae [1], the “Protective dose (24h survival) – EC50” value is “-”. In addition, the IC50 with 1 dpf zebrafish embryos [4] worked out at 408 µM.
Consider `O=C(O)CC(O)C(=O)O` (stereo not shown), for which the “Protective dose (24h survival) – EC50” value in the data set with 7 dpf zebrafish larvae [1] is given as “-”. The “Toxic dose (without KCN)” value in the data set with 7 dpf zebrafish larvae [2] (mortality after 24h exposure) is reported as 100 mM.
Take Sodium glutamate: in the data set on 7 dpf zebrafish larvae [1], the “Protective dose (24h survival) – EC50” value is recorded as “-”. In addition, in the data set on 7 dpf zebrafish larvae [2] (mortality after 24h exposure), the “Toxic dose (without KCN)” value is recorded as 100 mM.
The corresponding values for `CCCC(CCC)C(=O)O` are “-” and 10 mM.
For `NC(=O)c1ncn([C@@H]2O[C@H](CO)[C@@H](O)[C@H]2O)c1N`, in the data set on 7 dpf zebrafish larvae [1], the “Protective dose (24h survival) – EC50” value is “-”. Moreover, in the data set with 7 dpf zebrafish larvae [2] (dash entries), the “Toxic dose (without KCN)” value was “-”.
Regarding Oxalomalic acid sodium salt, the “Toxic dose (without KCN)” value in the data set on 1 dpf zebrafish embryos [3] (dash entries) is “-”. In addition, in the data set on 1 dpf zebrafish embryos [4], the “Dose reversing resistance to KCN – IC50” value is recorded as “-”.
As to Chlorothricin, the “Toxic dose (without KCN)” value with 1 dpf zebrafish embryos [3] (dash entries) and in the data set with 7 dpf zebrafish larvae [2] (dash entries) was “-” throughout. Moreover, the “Protective dose (24h survival) – EC50” value in the data set with 7 dpf zebrafish larvae [1] was “-”. Moreover, in the data set on 1 dpf zebrafish embryos [4], the “Dose reversing resistance to KCN – IC50” value was “-”.
With Sodium L-lactate, the “Toxic dose (without KCN)” value in the data set on 1 dpf zebrafish embryos [3] (dash entries) was “-”; with 7 dpf zebrafish larvae [2] (mortality after 24h exposure), 100 mM. The “Protective dose (24h survival) – EC50” value in the data set with 7 dpf zebrafish larvae [1] is recorded as “-”.
Consider `CCCCCCCCCCCCCCOc1ccc(C(=O)O)o1`, for which, in the data set with 7 dpf zebrafish larvae [1], the “Protective dose (24h survival) – EC50” value is given as “-”. In the data set with 7 dpf zebrafish larvae [2] (mortality after 24h exposure), the “Toxic dose (without KCN)” value came out at 0.1 mM.
As for `O=C(Cc1cccc(OC(F)(F)F)c1)Nc1ccc(CCCCc2nnc(NC(=O)Cc3ccccn3)s2)nn1`, the “Toxic dose (without KCN)” value in the data set with 1 dpf zebrafish embryos [3] (mortality after 24h exposure) is 0.25 mM; in the data set with 7 dpf zebrafish larvae [2] (mortality after 24h exposure), 0.125 mM. In the data set with 7 dpf zebrafish larvae [1], the “Protective dose (24h survival) – EC50” value is given as “-”. Further, the “Dose reversing resistance to KCN – IC50” value in the data set with 1 dpf zebrafish embryos [4] is listed as “-”.
In the case of “DL-Isocitric acid trisodium salt hydrate”, the “Protective dose (24h survival) – EC50” value in the data set on 7 dpf zebrafish larvae [1] is “-”. The “Toxic dose (without KCN)” value in the data set with 7 dpf zebrafish larvae [2] (dash entries) was “-”.
For `O=CC[C@@H](O)[C@H](O)[C@H](O)CO`, the “Toxic dose (without KCN)” value with 1 dpf zebrafish embryos [3] (dash entries) is “-”. Besides, the “Dose reversing resistance to KCN – IC50” value with 1 dpf zebrafish embryos [4] was “-”.
With `O.O=C(O)c1cccc(C(=O)O)c1C(=O)O`, the “Protective dose (24h survival) – EC50” value in the data set on 7 dpf zebrafish larvae [1] is “-”. Also, in the data set with 7 dpf zebrafish larvae [2] (mortality after 24h exposure), the “Toxic dose (without KCN)” value is 100 mM.
On to Octyl-α-ketoglutarate, for which the “Toxic dose (without KCN)” value with 1 dpf zebrafish embryos [3] (dash entries) is “-”; with 7 dpf zebrafish larvae [2] (mortality after 24h exposure) it was 5 mM. Also, the “Protective dose (24h survival) – EC50” value in the data set on 7 dpf zebrafish larvae [1] was “-”. Besides, the “Dose reversing resistance to KCN – IC50” value in the data set with 1 dpf zebrafish embryos [4] is reported as “-”.
As for Monomethyl hydrogen succinate, the “Toxic dose (without KCN)” value in the data set on 1 dpf zebrafish embryos [3] (dash entries) and with 7 dpf zebrafish larvae [2] (dash entries) was “-” throughout. For the same compound, the “Protective dose (24h survival) – EC50” value with 7 dpf zebrafish larvae [1] was “-”. The “Dose reversing resistance to KCN – IC50” value in the data set with 1 dpf zebrafish embryos [4] is recorded as “-”.
For `NC(=O)CC[C@H](N)C(=O)O`, the “Protective dose (24h survival) – EC50” value in the data set with 7 dpf zebrafish larvae [1] was “-”. Further, in the data set with 7 dpf zebrafish larvae [2] (dash entries), the “Toxic dose (without KCN)” value is “-”.
In the case of Sodium fumarate dibasic, in the data set on 7 dpf zebrafish larvae [1], the “Protective dose (24h survival) – EC50” value was “-”. Besides, in the data set with 7 dpf zebrafish larvae [2] (mortality after 24h exposure), the “Toxic dose (without KCN)” value was found to be 100 mM.
The matching figures for Dimethyloxalylglycine: “-” and 1.25 mM.
`NC1(C(=O)O)CC2CCC1C2` (stereo not shown): the “Protective dose (24h survival) – EC50” value with 7 dpf zebrafish larvae [1] is “-”. Further, the “Toxic dose (without KCN)” value in the data set with 7 dpf zebrafish larvae [2] (dash entries) was “-”.
For the compound `C[C@@H]1C[C@H]2O[C@@H]2/C=C\C=C\C(=O)Cc2c(Cl)c(O)cc(O)c2C(=O)O1`, in the data set on 7 dpf zebrafish larvae [1], the “Protective dose (24h survival) – EC50” value is “-”. Further, in the data set on 7 dpf zebrafish larvae [2] (mortality after 24h exposure), the “Toxic dose (without KCN)” value was found to be 0.4 mM.
For the compound Sodium succinate, in the data set on 7 dpf zebrafish larvae [1], the “Protective dose (24h survival) – EC50” value is reported as “-”. Further, the “Toxic dose (without KCN)” value with 7 dpf zebrafish larvae [2] (dash entries) is “-”.
Take Sodium citrate: the “Protective dose (24h survival) – EC50” value with 7 dpf zebrafish larvae [1] was “-”. In addition, the “Toxic dose (without KCN)” value in the data set with 7 dpf zebrafish larvae [2] (mortality after 24h exposure) is on record as 100 mM.
As for Bromopyruvic acid, the “Toxic dose (without KCN)” value in the data set on 1 dpf zebrafish embryos [3] (dash entries) was “-”. Further, the “Dose reversing resistance to KCN – IC50” value with 1 dpf zebrafish embryos [4] is on record as “-”.
Turning to `CCCCC(CC)CNC(=N)NC(=N)NCCCCCCNC(=N)NC(=N)NCC(CC)CCCC` (stereo not shown), the “Protective dose (24h survival) – EC50” value in the data set on 7 dpf zebrafish larvae [1] was “-”. The “Toxic dose (without KCN)” value with 7 dpf zebrafish larvae [2] (mortality after 24h exposure) was found to be 0.005 mM.
The corresponding values for `O=C(O)CC(=O)C(=O)O` are “-” and 10 mM.
The matching figures for Cis-aconitic acid: “-” and 10 mM.
For the compound `CC(=O)C(=O)O`, the “Survival after 24h” value with 7 dpf zebrafish larvae [1] (dose 1 µM) amounted to 0; with 7 dpf zebrafish larvae [1] (dose 10 µM) it was 0; in the data set on 7 dpf zebrafish larvae [1] (dose 20 µM), 0; in the data set on 7 dpf zebrafish larvae [1] (dose 50 µM), 0; with 7 dpf zebrafish larvae [1] (dose 1 mM), 100; with 7 dpf zebrafish larvae [1] (dose 10 mM), 100. Moreover, the EC50 in the data set on 7 dpf zebrafish larvae [1] was 176 µM. Moreover, the “Toxic dose (without KCN)” value in the data set with 7 dpf zebrafish larvae [2] (dash entries) is recorded as “-”.
Regarding Glyoxal trimer dihydrate, the “protection of 7 dpf larvae from a lethal KCN dose (result in words)” value in the data set with 7 dpf zebrafish larvae [1] is given as “potent cyanide antidotes”. Besides, the “Survival after 24h” value was determined as 0 in the data set with 7 dpf zebrafish larvae [1] (dose 500 nM); 0 with 7 dpf zebrafish larvae [1] (dose 1 µM); 0 in the data set on 7 dpf zebrafish larvae [1] (dose 5 µM); 100 in the data set on 7 dpf zebrafish larvae [1] (dose 100 µM); 100 in the data set with 7 dpf zebrafish larvae [1] (dose 1 mM); 100 in the data set with 7 dpf zebrafish larvae [1] (dose 10 mM). Moreover, the EC50 with 7 dpf zebrafish larvae [1] was 11 µM. The “Toxic dose (without KCN)” value with 7 dpf zebrafish larvae [2] (dash entries) is “-”.
On to Sodium dichloroacetate, for which the “Survival after 24h” value with 7 dpf zebrafish larvae [1] (dose 1 mM) came out at 0; in the data set on 7 dpf zebrafish larvae [1] (dose 5 mM), 0; in the data set with 7 dpf zebrafish larvae [1] (dose 25 mM), 100; in the data set with 7 dpf zebrafish larvae [1] (dose 50 mM) it was 100; with 7 dpf zebrafish larvae [1] (dose 100 mM), 100. In addition, the EC50 in the data set with 7 dpf zebrafish larvae [1] amounted to 22000 µM. In addition, in the data set with 7 dpf zebrafish larvae [2] (dash entries), the “Toxic dose (without KCN)” value is given as “-”.
On to `NC(=O)C(=O)O`, for which, in the data set on 7 dpf zebrafish larvae [1], the “Protective dose (24h survival) – EC50” value is on record as “-”. Further, the “Toxic dose (without KCN)” value with 7 dpf zebrafish larvae [2] (dash entries) is reported as “-”.
As for `CCOC(=O)[C@@]1(CCCCCCOc2ccc(Cl)cc2)CO1`, in the data set on 1 dpf zebrafish embryos [3] (mortality after 24h exposure), the “Toxic dose (without KCN)” value was 0.3 mM. In the data set on 1 dpf zebrafish embryos [4], this compound returned an IC50 of 35 µM.
In the case of Glyoxal, the “protection of 7 dpf larvae from a lethal KCN dose (result in words)” value in the data set with 7 dpf zebrafish larvae [1] is “potent cyanide antidotes”. The “Survival after 24h” value in the data set on 7 dpf zebrafish larvae [1] (dose 1 µM) was 0; in the data set with 7 dpf zebrafish larvae [1] (dose 10 µM) it was 0; with 7 dpf zebrafish larvae [1] (dose 20 µM) it was 0; in the data set with 7 dpf zebrafish larvae [1] (dose 1 mM) it was 100; with 7 dpf zebrafish larvae [1] (dose 10 mM) it was 100. In the data set with 7 dpf zebrafish larvae [1], the EC50 amounted to 82 µM. Also, the “Toxic dose (without KCN)” value in the data set on 7 dpf zebrafish larvae [2] (mortality after 24h exposure) turned out to be 100 mM.
With `O=C(CO)CO`, the “Survival after 24h” value was determined as 0 in the data set with 7 dpf zebrafish larvae [1] (dose 100 µM), 0 with 7 dpf zebrafish larvae [1] (dose 200 µM), 0 in the data set on 7 dpf zebrafish larvae [1] (dose 500 µM) and 100 with 7 dpf zebrafish larvae [1] (dose 2 mM). Moreover, in the data set with 7 dpf zebrafish larvae [1], the EC50 was determined as 1000 µM. Moreover, the “Toxic dose (without KCN)” value with 7 dpf zebrafish larvae [2] (dash entries) was “-”.
As to `c1cc(-c2cnn3cc(-c4ccc(OCCN5CCCCC5)cc4)cnc23)ccn1`, the “Toxic dose (without KCN)” value is “-” in the data set with 1 dpf zebrafish embryos [3] (dash entries) and 0.05 mM in the data set with 7 dpf zebrafish larvae [2] (mortality after 24h exposure). Further, the “Protective dose (24h survival) – EC50” value with 7 dpf zebrafish larvae [1] is “-”.
